Results from patent publication US20260384443A1, “THIADIAZOLES AS GLUTAMINASE I INHIBITORS” (published 2026).

Amino acid sequences for entries named in this document (tags omitted). Residues count along the entry.
UniProt O94925, 55-669 limits assumed: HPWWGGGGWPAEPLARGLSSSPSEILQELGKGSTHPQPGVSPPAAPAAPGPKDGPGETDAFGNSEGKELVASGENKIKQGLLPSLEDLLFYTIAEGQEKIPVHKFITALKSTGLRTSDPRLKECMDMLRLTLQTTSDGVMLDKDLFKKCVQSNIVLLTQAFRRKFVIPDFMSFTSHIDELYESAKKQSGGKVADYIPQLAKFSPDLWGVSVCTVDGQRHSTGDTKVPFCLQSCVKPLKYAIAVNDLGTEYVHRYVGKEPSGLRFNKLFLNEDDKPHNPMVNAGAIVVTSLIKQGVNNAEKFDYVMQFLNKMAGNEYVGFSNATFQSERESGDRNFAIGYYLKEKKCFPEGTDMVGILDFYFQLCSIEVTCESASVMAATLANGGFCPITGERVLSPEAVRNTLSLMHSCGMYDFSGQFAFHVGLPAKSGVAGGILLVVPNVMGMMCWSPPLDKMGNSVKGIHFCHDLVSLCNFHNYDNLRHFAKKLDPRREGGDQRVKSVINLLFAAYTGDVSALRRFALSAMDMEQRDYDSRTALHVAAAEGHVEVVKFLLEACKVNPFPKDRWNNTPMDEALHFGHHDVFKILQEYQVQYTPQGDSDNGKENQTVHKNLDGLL
UniProt O94925, 73-669 limits assumed: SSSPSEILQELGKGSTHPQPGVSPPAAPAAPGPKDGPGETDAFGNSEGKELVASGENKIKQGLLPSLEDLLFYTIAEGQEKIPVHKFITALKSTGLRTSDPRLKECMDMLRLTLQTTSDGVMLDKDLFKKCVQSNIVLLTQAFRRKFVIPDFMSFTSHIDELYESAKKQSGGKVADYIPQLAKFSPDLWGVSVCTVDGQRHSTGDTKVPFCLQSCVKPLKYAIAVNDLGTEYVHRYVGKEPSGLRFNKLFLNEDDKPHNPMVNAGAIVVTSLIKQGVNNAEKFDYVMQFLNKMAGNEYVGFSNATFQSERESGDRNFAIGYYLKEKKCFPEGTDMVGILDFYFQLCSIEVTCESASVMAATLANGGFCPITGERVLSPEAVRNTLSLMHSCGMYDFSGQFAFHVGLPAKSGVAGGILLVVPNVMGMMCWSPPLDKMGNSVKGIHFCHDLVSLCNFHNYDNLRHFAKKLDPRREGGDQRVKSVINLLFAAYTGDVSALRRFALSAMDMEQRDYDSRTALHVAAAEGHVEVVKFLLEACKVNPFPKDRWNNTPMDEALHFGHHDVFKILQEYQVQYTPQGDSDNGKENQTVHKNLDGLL

Experiments:
GLS1 [1] = molecular target: T1, GLS1 (Homo sapiens, UniProt O94925); test: GLS1 enzymatic assay (three-stage coupled endpoint assay: GLS1/GDH/diaphorase, resorufin fluorescence); conditions: read-out: Enzyme IC50
GLS1 [2] = molecular target: T1, GLS1; test: GLS1 cell assay: intracellular glutamate level in A549 cells (Glutamine/Glutamate-Glo); conditions: read-out: Cell IC50, 2 h compound pre-incubation, then 24 h with L-Gln

IC50 (GLS1 [1])	IC50 (GLS1 [2])	Compound
0.0371 µM	0.0277 µM	O=C(C[C@@H]1COCCN1C1CCCCC1)Nc1nnc(N[C@@H]2CCN(c3cccnn3)C2)s1 (single isomer, unassigned) [Example 228]
0.1 µM	0.0363 µM	CC1(C)CCC(N2CCO[C@@H](CC(=O)Nc3nnc(N[C@@H]4CCN(c5ccc(Cl)nn5)C4)s3)C2)CC1 (single isomer, unassigned) [Example 282]
0.0226 µM	0.0066 µM	Cc1ccc(C(C)N2CCC[C@@H](CC(=O)Nc3nnc(N[C@@H]4CCN(c5cccnn5)C4)s3)C2)c(F)c1 (stereo partly shown)
0.0274 µM	0.0036 µM	C[C@H](c1cc(F)cc(F)c1)N1CCC[C@@H](CC(=O)Nc2nnc(N[C@@H]3CCN(c4cccnn4)C3)s2)C1 (single isomer, unassigned) [Example 242]
0.0375 µM	0.0788 µM	O=C(C[C@@H]1CCCN(Cc2ccccc2OC2CC(F)(F)C2)C1)Nc1nnc(N[C@@H]2CCN(c3cccnn3)C2)s1
0.0214 µM	0.0283 µM	O=C(CC1CC2(CO1)CN(Cc1ccccc1OC1CCCC1)C2)Nc1nnc(N[C@@H]2CCN(c3cccnn3)C2)s1 (stereo partly shown)
0.0401 µM	0.0055 µM	O=C(CC1CCN(Cc2ccc(OC(F)(F)F)cc2)CC1)Nc1nnc(N[C@@H]2CCN(c3cccnn3)C2)s1
0.0229 µM	0.0072 µM	O=C(CC1CC2(C1)CN(Cc1cccc(OC(F)(F)F)c1)C2)Nc1nnc(N[C@@H]2CCN(c3cccnn3)C2)s1
0.0196 µM	0.0143 µM	O=C(CC1CCC2(CC1)CCN(Cc1ccc(Cl)cn1)CC2)Nc1nnc(N[C@@H]2CCN(c3cccnn3)C2)s1
0.0402 µM	0.008 µM	CC(C)OC(=O)c1ccc(CN2CCC(CC(=O)Nc3nnc(N[C@@H]4CCN(c5cccnn5)C4)s3)CC2)cc1
0.0266 µM	0.0057 µM	O=C(C[C@H]1CN(C2CC3(CCCCC3)C2)CCO1)Nc1nnc(N[C@@H]2CCN(c3cccnn3)C2)s1 (single isomer, unassigned) [Example 255]
0.0691 µM	0.0225 µM	CC1(C)CCC(N2CCN(CC(=O)Nc3nnc(N[C@@H]4CCN(c5cccnn5)C4)s3)CC2)CC1
0.0298 µM	0.0016 µM	CC(C)[C@H]1CC[C@H](N2CCO[C@H](CC(=O)Nc3nnc(N[C@@H]4CCN(c5cccnn5)C4)s3)C2)CC1 (single isomer, unassigned) [Example 244]
0.0544 µM	0.0053 µM	CSc1ccccc1CN1CCC[C@@H](OCC(=O)Nc2nnc(N[C@@H]3CCN(c4cccnn4)C3)s2)C1 (single isomer, unassigned) [Example 104]
0.0647 µM	0.0086 µM	CCC(SC1CCN(Cc2ccccc2OC(C)C)CC1)C(=O)Nc1nnc(N[C@@H]2CCN(c3cccnn3)C2)s1 (stereo partly shown)
0.0237 µM	0.0054 µM	O=C(C[C@@H]1CCCN(Cc2ccc(OC(F)(F)F)cc2)C1)Nc1nnc(N[C@@H]2CCN(c3cccnn3)C2)s1
0.0496 µM	0.0062 µM	CC(C)Sc1ccccc1CN1CCC(CC(=O)Nc2nnc(N[C@@H]3CCN(c4cccnn4)C3)s2)CC1
0.0504 µM	0.0198 µM	O=C(CC1CN(Cc2cncc(C(F)(F)F)c2)CC2(CC2)C1)Nc1nnc(N[C@@H]2CCN(c3cccnn3)C2)s1 (stereo partly shown)
0.0514 µM	0.0224 µM	CN(c1nnc(NC(=O)C[C@@H]2CCCN(Cc3cc(F)cc(F)c3)C2)s1)[C@@H]1CCN(c2cccnn2)C1
0.0963 µM	0.0018 µM	O=C(CSC1CCN(Cc2ccc(OC(F)(F)F)cc2)CC1)Nc1nnc(N[C@@H]2CCN(c3cccnn3)C2)s1

IC50 (GLS1 [1])	IC50 (GLS1 [2])	Compound
0.045 µM	0.0762 µM	CC(C)Oc1cccnc1CN1CCC(CC(=O)Nc2nnc(N[C@@H]3CCN(c4cccnn4)C3)s2)CC12CC2 (stereo partly shown)
0.0189 µM	0.0053 µM	CCc1ccc(CN2CCC[C@@H](CC(=O)Nc3nnc(N[C@@H]4CCN(c5cccnn5)C4)s3)C2)cc1F
0.223 µM	0.0106 µM	O=C(Nc1nnc(N[C@@H]2CCN(c3cccnn3)C2)s1)OC1CCN(Cc2ccc(OC(F)(F)F)cc2)CC1
0.0145 µM	0.0017 µM	CC(C)Sc1ccccc1CN1CC2(CCCN(CC(=O)Nc3nnc(N[C@@H]4CCN(c5cccnn5)C4)s3)C2)C1
3.52 µM	2.01 µM	O=C(CC1CN(Cc2cccc(OC(F)(F)F)c2)C1)Nc1nnc(N[C@@H]2CCN(c3cccnn3)C2)s1
0.0632 µM	0.489 µM	O=C(CC1CCN(Cc2ccc(O)c(OC(F)(F)F)c2)CC1)Nc1nnc(N[C@@H]2CCN(c3cccnn3)C2)s1
0.0282 µM	0.0072 µM	CC(C)OC(=O)c1cccc(CN2CCC(CC(=O)Nc3nnc(N[C@@H]4CCN(c5cccnn5)C4)s3)CC2)c1
0.0658 µM	0.0178 µM	CC1(C)CCC(N2CCOC(CC(=O)Nc3nnc(N[C@@H]4CCN(c5ccc(Cl)nn5)C4)s3)C2)CC1 (stereo partly shown)
0.0236 µM	0.0057 µM	CCc1ccc(CN2CCC[C@@H](CC(=O)Nc3nnc(N[C@@H]4CCN(c5cccnn5)C4)s3)C2)c(F)c1
0.0696 µM	0.13 µM	CCC(C(=O)Nc1nnc(N[C@@H]2CCN(c3cccnn3)C2)s1)C1CCN(Cc2ccccc2OC(C)C)CC1 (stereo partly shown)
0.212 µM	0.0121 µM	CC1(C)CCC(CN2CCSC(C(=O)Nc3nnc(N[C@@H]4CCN(c5cccnn5)C4)s3)C2)CC1 (stereo partly shown)
0.0109 µM	0.0016 µM	CCC1(CC)CCC(N2CCO[C@H](CC(=O)Nc3nnc(N[C@@H]4CCN(c5cccnn5)C4)s3)C2)CC1 (single isomer, unassigned) [Example 148]
0.0714 µM	0.0015 µM	Cc1cc(CN2CCC(CC(=O)Nc3nnc(N[C@@H]4CCN(c5cccnn5)C4)s3)CC2)cc(OC(F)(F)F)c1
0.0301 µM	0.004 µM	CC(C)Oc1ccccc1[C@@H](C)N1CCC(SCC(=O)Nc2nnc(N[C@@H]3CCN(c4cccnn4)C3)s2)CC1 (single isomer, unassigned) [Example 234]
0.023 µM	0.0043 µM	O=C(C[C@H]1CC2(CO1)CN(Cc1cccc(OC(F)(F)F)c1)C2)Nc1nnc(N[C@@H]2CCN(c3cccnn3)C2)s1 (single isomer, unassigned) [Example 80]
0.0827 µM	0.002 µM	CN(CC1CCC(C)(C)CC1)C1(CC(=O)Nc2nnc(N[C@@H]3CCN(c4cccnn4)C3)s2)CC1
0.11 µM	0.0055 µM	CC1(C)CCC(CN2CCN(CC(=O)Nc3nnc(N[C@@H]4CCN(c5cccnn5)C4)s3)CC2)CC1
0.0654 µM	0.0121 µM	O=C(C[C@@H]1CCCN(Cc2cc(F)cc(F)c2)C1)Nc1nnc(N[C@@H]2CCN(c3ccc(Cl)nn3)C2)s1
0.0127 µM	0.0028 µM	CC(C)(C)c1cc(CN2CCC(SCC(=O)Nc3nnc(N[C@@H]4CCN(c5cccnn5)C4)s3)CC2)on1
2.9 µM	5.64 µM	CC(C)[C@@H]1CC[C@@H](C)C[C@@H]1N1CCO[C@H](CC(=O)Nc2nnc(N[C@@H]3CCN(c4cccnn4)C3)s2)C1 (racemic) [Example 126]

IC50 (GLS1 [1])	IC50 (GLS1 [2])	Compound
0.0663 µM	0.0201 µM	Cc1ccccc1CN1CCC([C@H](C(=O)Nc2nnc(N[C@@H]3CCN(c4cccnn4)C3)s2)C(C)C)CC1 (single isomer, unassigned) [Example 225]
0.0276 µM	0.0158 µM	CC(C)Oc1ccccc1CN1CCC[C@@H](SCC(=O)Nc2nnc(N[C@@H]3CCN(c4cccnn4)C3)s2)C1 (single isomer, unassigned) [Example 101]
0.09 µM	0.0259 µM	CN(CC(=O)Nc1nnc(N[C@@H]2CCN(c3cccnn3)C2)s1)C(C)(C)C1CCN(Cc2cccc(OC(F)(F)F)c2)CC1
0.0174 µM	0.015 µM	CCc1onc(C)c1CN1CCC2(CCC(CC(=O)Nc3nnc(N[C@@H]4CCN(c5cccnn5)C4)s3)CC2)CC1
0.0406 µM	0.0582 µM	CC1(C)CCC(CN2CC3(COC(CC(=O)Nc4nnc(N[C@@H]5CCN(c6cccnn6)C5)s4)C3)C2)CC1 (stereo partly shown)
0.014 µM	0.0112 µM	O=C(C[C@H]1CCCN(Cc2cc(F)cc(F)c2)C1)Nc1nnc(N[C@@H]2CCN(c3cccnn3)C2)s1
0.0395 µM	0.0272 µM	O=C(CC1CCN(Cc2ccc(OC(F)F)cc2)CC1)Nc1nnc(N[C@@H]2CCN(c3cccnn3)C2)s1
0.0198 µM	0.0055 µM	Cc1cc(F)cc(CN2CCC[C@@H](CC(=O)Nc3nnc(N[C@@H]4CCN(c5cccnn5)C4)s3)C2)c1
0.0181 µM	0.0279 µM	CC(C)COC(=O)c1cc(CN2CCC(CC(=O)Nc3nnc(N[C@@H]4CCN(c5cccnn5)C4)s3)CC2)ccn1
0.017 µM	0.003 µM	CSc1ccccc1CN1CC2(CCCN(CC(=O)Nc3nnc(N[C@@H]4CCN(c5cccnn5)C4)s3)C2)C1
0.0191 µM	0.0047 µM	CCOc1c(F)cc(CN2CCC[C@@H](CC(=O)Nc3nnc(N[C@@H]4CCN(c5cccnn5)C4)s3)C2)cc1F
0.0281 µM	0.0579 µM	O=C(CC1CCC2(CC1)CCN(Cc1ncccc1OC1CCC1)CC2)Nc1nnc(N[C@@H]2CCN(c3cccnn3)C2)s1
0.0131 µM	0.0024 µM	O=C(CC1CN(C2CCCCCC2)CCC1(F)F)Nc1nnc(N[C@@H]2CCN(c3cccnn3)C2)s1 (stereo partly shown)
0.0119 µM	0.0023 µM	CC(C)C(C(C)C)N1CCOC(CC(=O)Nc2nnc(N[C@@H]3CCN(c4cccnn4)C3)s2)C1 (stereo partly shown)
0.0083 µM	0.0018 µM	Cc1cc(CN2CCC(SCC(=O)Nc3nnc(N[C@@H]4CCN(c5cccnn5)C4)s3)CC2)c(C)s1
0.0494 µM	0.0041 µM	Cc1cc(CN2CCC(CC(=O)Nc3nnc(N[C@@H]4CCN(c5cccnn5)C4)s3)CC2)ccc1C(F)(F)F
0.0732 µM	0.0041 µM	O=C(CC1CCN(Cc2cccc(OC(F)(F)F)c2)CC1)Nc1nnc(N[C@@H]2CCN(c3cccnn3)C2)s1
0.0375 µM	0.0181 µM	Cc1cc(C)cc(CN2CCC[C@@H](CC(=O)Nc3nnc(N[C@@H]4CCN(c5cccnn5)C4)s3)C2)c1
0.296 µM	0.155 µM	Cc1ccccc1CN1CCC([C@@H](CC2CC2)C(=O)Nc2nnc(N[C@@H]3CCN(c4cccnn4)C3)s2)CC1 (single isomer, unassigned) [Example 221]
